Reference: patent US20180162938A1 (GANYMED PHARMACEUTICALS, published 2018)

T1: human CLDN6 (claudin 6), full length (human, UniProt P56747 1-220)
T1 construct: Expressed untagged from vector p3953 in HEK293T, HEK293 and CHO-K1 cells; endogenous in NEC8 and OV90 cells; In the Western blots it stood in denatured cell lysate; also called wild-type CLDN6
T1 sequence: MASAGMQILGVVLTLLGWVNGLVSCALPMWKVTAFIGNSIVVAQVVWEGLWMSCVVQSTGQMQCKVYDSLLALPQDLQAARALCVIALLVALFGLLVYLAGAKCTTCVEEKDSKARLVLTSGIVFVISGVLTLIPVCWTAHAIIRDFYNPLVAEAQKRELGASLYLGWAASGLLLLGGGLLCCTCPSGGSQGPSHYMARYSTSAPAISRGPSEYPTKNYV


Key:
[1] = target: T1, human CLDN6 (claudin 6), full length; assay: flow cytometry saturation binding (median fluorescence), HEK293 cells stably expressing human CLDN6
[2] = target: T1, human CLDN6 (claudin 6), full length; assay: flow cytometry (median fluorescence), OV90 ovarian cancer cells endogenously expressing CLDN6
[3] = target: T1, human CLDN6 (claudin 6), full length; assay: flow cytometry (median fluorescence), NEC8 testicular cancer cells endogenously expressing CLDN6
[4] = target: T1, human CLDN6 (claudin 6), full length; assay: flow cytometry, OV90 cells endogenously expressing CLDN6
[5] = target: T1, human CLDN6 (claudin 6), full length; assay: flow cytometry saturation binding, HEK293 cells stably expressing human CLDN6
[6] = target: T1, human CLDN6 (claudin 6), full length; assay: flow cytometry, NEC8 cells endogenously expressing CLDN6

| EC50 (read off the curve) [1] [µg/mL] | EC50 (read off the curve) [2] [µg/mL] | EC50 (read off the curve) [3] [µg/mL] | EC50 [4] [µg/mL] | EC50 [5] [µg/mL] | EC50 [6] [µg/mL] | Binder |
| --- | --- | --- | --- | --- | --- | --- |
| ~0.5 | ~0.6 | ~0.6 | – | – | – | chimeric monoclonal antibody chimAB 64A (antibody, V domains shown) VH: EVQLQQSGPELVKPGASMKISCKASGYSFTGYTMNWVKQSHGKNLEWIGLINPYNGGTIYNQKFKGKATLTVDKSSSTAYMELLSLTSEDSAVYYCARDYGFVLDYWGQGTTLTVSS VL: QIVLTQSPSIMSVSPGEKVTITCSASSSVSYMHWFQQKPGTSPKLCIYSTSNLASGVPARFSGRGSGTSYSLTISRVAAEDAATYYCQQRSNYPPWTFGGGTKLEIKR |
| ~0.5 | ~0.6 | ~0.6 | – | – | – | chimeric monoclonal antibody chimAB 89A (antibody, V domains shown) VH: EVQLQQSRPELVKPGASMKISCKASGYSFTGYTLNWVKQSHGKNLEWIGLINPYNGGSSYNQKFKDKATLTVDKSSSTAYMELLSLTSEDSAVYYCARDYGYVFDYWGQGTTLTVSS VL: QIVLTQSPAIMSASPGEKVTITCSASSSVNYMHWFQLKPGTSPKLLIYSTSNLASGVPARFSGRGSGTSYSLTISRMEAEDAATYYCQQRNNYPPWTFGGGTKLEIKR |
| – | – | – | 1.5 | 2.3 | 1.7 | chimeric monoclonal antibody chimAB 61D (antibody, V domains shown) VH: EVQLQQSGPELVKPGASMKISCKASGYSFTGYTMNWVKQSHGKNLEWIGLINPYNGGTSYNQKFKGKATLTIDKSSSTAYMELLSLTSEDSAVYYCARDYGYVLDYWGQGTTLTVSS VL: QIVLTQSPAIMSASPGEKVTITCSASSSVSYLHWFQQKPGTSPKLWVYSTSNLPSGVPARFGGSGSGTSYSLTISRMEAEDAATYYCQQRSIYPPWTFGGGTKLEIKR |
| – | – | – | 2.3 | 1 | 6.1 | chimeric monoclonal antibody chimAB 67A (antibody, V domains shown) VH: EVQLQQSGPELVKPGASMKISCKASGYSFTGYTMNWVKQSHGKNLEWIGLINPYNGGIIYNQKFKGKATLTVDKSSSTAYMELLSLTSEDSAVFYCARDFGYVLDYWGQGTTLTVSS VL: QIVLTQSPAIMSASPGEKVTITCSASSSVSYMHWFQQKPGTSPKLWIYSTSNLASGVPARFSGSGSGTSYSLTISRVAAEDAATYYCQQRSTYPPWTFGGGTKLEIKR |
